From patent publication US20160206597A1, “New Use” (priority 2013, published 2016)

Test system: patients with chronic heart failure with preserved left-ventricular ejection fraction (HF-PEF)
Experiment: Safety and tolerability in the 36-week HF-PEF study
Details: 36-week study

Substance: trisodium [3-((1S,3R)-1-biphenyl-4-ylmethyl-3-ethoxycarbonyl-1-butylcarbamoyl) propionate-(S)-3′-methyl-2′-(pentanoyl{2″-(tetrazol-5-ylate)biphenyl-4′-ylmethyl}amino)butyrate]hemipentahydrate [LCZ696]
- Adverse event atrial fibrillation (number of patients): 2 patients
- Adverse event atrial fibrillation (percent of patients): 2.0%
- Angio-oedema occurrence: one patient
- Deaths among serious adverse events: one death
- Patients with one or more serious adverse events (number): 22 patients
- Patients with one or more serious adverse events (percent): 15%
- Tolerability (adverse effects similar to valsartan): well tolerated
